Paper doi:10.1101/2024.07.29.605666v2, “Effects of two different compounds on seizure suppression using the zebrafish PTZ-seizure model” (bioRxiv, 2024)

Tested on: zebrafish larvae
Assay: Bio-distribution of fluorescently labelled peptides by fluorescence microscopy
Assay type: in vivo, zebrafish (Danio rerio)
Conditions: TMR-labelled tripeptide 10 μg/ml in water, 6 dpf larvae, 1, 6, 18 and 24 h exposure, 26±2°C, n=3 each time
Procedure: Bio-distribution analysis was conducted on Tripeptide and CX2, labeled with tetramethylrhodamine-TMR and carboxytetramethylrhodamine – TAMRA, respectively.
Larvae at 6 dpf were transferred to a 96-well plate, with one larva per well, containing 100 μL of aquarium water. Subsequently, 100 μL of the Tripeptide compound at 20 μg/mL or CX2 at 1 μM was added according to the respective group, totalizing 200 ml of solution at final concentration of 10 μg/ml for Tripeptide and 0.5 μM for CX2. Exposure times for both compound groups were 1, 6, 18, and 24 hours (n=3 each time). The control group underwent similar manipulation but in water only. The incubation temperature during the experiments was maintained at 26±2°C. upon completion of exposure, larvae were rapidly and carefully transferred to a Becker containing 0.02% tricaine (Tricaine, Sigma) for approximately 2 minutes. Subsequently, the larvae were transferred to a Petri dish containing 1% agarose as a base, along with a drop of water. Larvae were examined and photographed using the Multizoon AZ100 microscope (Nikon, Tokyo, Japan) at 2X magnification. Two photographs of each larva were taken, one in black and white, and the other capturing only the fluorescence emission. Imaging merging was performed using the NIS-Elements software (Nikon, Tokyo, Japan). […]

Glu-Val-Trp [Tripeptide]
detection in the brain (fluorescence): did not reach the brain | distribution in the body (fluorescence): predominantly retained in the zebrafish intestine
